Data on one molecule can be found in US20190327974A1, “SYNERGISTS FOR IMPROVED PESTICIDES” (priority 2017, published 2019).

Protein sequences, listed by entry. Tags and fused reporters are not part of them. Residues count along the entry.
UniProt P00811, 20-377: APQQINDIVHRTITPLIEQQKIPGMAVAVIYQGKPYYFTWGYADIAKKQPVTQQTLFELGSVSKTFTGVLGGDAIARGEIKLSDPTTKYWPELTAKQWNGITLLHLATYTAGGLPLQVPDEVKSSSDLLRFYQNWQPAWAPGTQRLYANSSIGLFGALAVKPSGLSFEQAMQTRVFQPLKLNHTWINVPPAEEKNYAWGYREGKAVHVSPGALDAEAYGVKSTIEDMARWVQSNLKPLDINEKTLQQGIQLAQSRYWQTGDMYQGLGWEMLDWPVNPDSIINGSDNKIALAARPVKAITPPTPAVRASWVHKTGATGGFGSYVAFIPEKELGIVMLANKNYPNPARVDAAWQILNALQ

One test deals with T1, Trypsin (Bos taurus, UniProt P00760).
T1 construct: gene PRSS1
T1 sequence (P00760 24-246): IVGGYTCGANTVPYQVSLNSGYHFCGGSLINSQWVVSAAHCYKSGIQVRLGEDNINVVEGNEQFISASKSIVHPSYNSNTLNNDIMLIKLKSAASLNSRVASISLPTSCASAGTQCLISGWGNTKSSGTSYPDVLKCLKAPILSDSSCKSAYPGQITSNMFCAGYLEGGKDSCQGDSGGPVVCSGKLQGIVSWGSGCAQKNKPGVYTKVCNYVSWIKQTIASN
Description: Trypsin selectivity. The class given is biochemical. The procedure:
(§1) To characterize the selectivity of boronic acids 1 to 5, they were assayed against AChE, the target of OP and carbamate insecticides (Table 1) as well as trypsin and bacterial AmpC β-lactamase. […] The toxicity of the hits against two human cell lines was further assessed.
(§2) To characterize the selectivity of boronic acids 1 to 5, they were assayed against the target of OP insecticides, AChE, as well as trypsin and bacterial AmpC β-lactamase (Table 1). AChE and αE7 are homologous, sharing the α/β-hydrolase fold and the same catalytic machinery, however the topology of their binding pockets is dissimilar (Jackson, C. J. et al. Structure and function of an insect α-carboxylesterase (αEsterase7) associated with insecticide resistance. Proc. Natl. Acad. Sci. U.S.A. 110, 10177-82 (2013) and Correy, G. J. et al. Mapping the Accessible Conformational Landscape of an Insect Carboxylesterase Using Conformational Ensemble Analysis and Kinetic Crystallography. Structure 24, 1-11 (2016).). […]

For test [1], the target named is bacterial AmpC β-lactamase (Escherichia coli, UniProt P00811). The test can be described thus: AmpC β-lactamase selectivity. The format is biochemical. The procedure: as §1, §2

Turning to `OB(O)c1cc(Br)cc(N2CCCC2)c1` [Compound 3], at Trypsin, the “selectivity for αE7 over trypsin” value is listed as “more than 10^6 fold”. The “selectivity for αE7 over AmpC β-lactamase” value in test [1] is listed as 240 fold.
